# Results from PubChem BioAssay AID602141 (Sanford-Burnham Center for Chemical Genomics, 2011).
# The entries are a selection whose mix differs from that of the whole data set. The source made the active and inactive calls.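 The calls were made as follows: active = corrected activity change at or below -50% at 5 µM; inactive = the rest.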
# Assay: KKLEB cell viability reduction – uHTS, fluorescence assay plates, cytotoxicity control for CF NF-kB inhibitor project, primary screen (AID 602141)
# Conditions: KKLEB CF airway cells viability, ATPlite luminescence, overnight; at 5 µM; hits give low values; cells stimulated with P. aeruginosa culture filtrate
row,Structure (SMILES),activity change (cytotoxicity)
1,COc1ccc2nc(NP(=O)(c3ccccc3)c3ccccc3)sc2c1,inactive: 11.2%
2,O=P1(N(CCCl)CCCl)OCCCN1CCCl (stereo not given),inactive: 4%
3,O=P1(N(CCCl)CCCl)Nc2ccccc2N1,inactive: 7.6%
4,Cc1cc(=O)[nH]c(N[N+](=O)[O-])n1,inactive: 9.3%
5,O=C(OC1CN2CCC1CC2)C12CC3CC(CC(C3)C1)C2 (stereo not given),inactive: -4.4%
6,Cc1c2c(nc3ccccc13)SC(C(Cl)Cl)C2 (stereo not given),inactive: -37.5%
7,CCOP(=O)(Nc1cccc2ccccc12)OCC,inactive: 0.6%
8,COc1cc(C2NCCC3(OCCO3)C2(C)C)cc(OC)c1OC (stereo not given),inactive: 2.6%
9,CCCOP(=S)(Nc1nc(N)cc(=O)[nH]1)OCCC,inactive: -4%
10,Cc1ccc(NCCc2c([N+](=O)[O-])cc([N+](=O)[O-])cc2[N+](=O)[O-])cc1,inactive: -2.9%
11,Nc1cccc2c([As](=O)(O)O)cccc12,inactive: -1.9%
12,O=[As](O)(c1cccc(O)c1)c1cccc(O)c1,inactive: -4.9%
13,Cc1cccc(OCC(=O)OC2CN3CCC2CC3)c1 (stereo not given),inactive: 6.2%
14,CS(=O)(=O)c1ccc(Cl)c(NC(=O)COC(=O)C(O)(c2ccccc2)c2ccccc2)c1,inactive: -2.4%
15,COc1cc(C(=O)NCC2(N3CCOCC3)CCCCC2)cc(Cl)c1OC(C)C,inactive: -0.3%
16,O=[As](O)(O)c1cccnc1,inactive: 10.2%
17,O=C(OC1CN2CCC1CC2)c1ccc(Cl)cc1 (stereo not given),inactive: -10.3%
18,CN(C(=O)Cc1ccc(Cl)c(Cl)c1)[C@H]1CC[C@@]2(CCCO2)C[C@@H]1N1CCCC1,inactive: -2.7%
19,CN(C)C(=O)c1cc([N+](=O)[O-])cc2c1-c1c(cc([N+](=O)[O-])cc1[N+](=O)[O-])C2=O,inactive: -10%
20,O=[N+]([O-])c1ccc2c(c1)nnn2O,inactive: 4.2%
21,CN(C(=O)Cc1ccccc1)[C@@H]1CC[C@]2(CCCO2)C[C@H]1N1CCCC1,inactive: -8.9%
22,CCOP1(=S)c2c(C)nn(CCC#N)c2N=C(c2ccc(F)cc2)N1C (stereo not given),inactive: -8.6%
23,N#CCCN(C(=O)COC(=O)C(O)(c1ccccc1)c1ccccc1)c1ccc(F)cc1,inactive: 3.4%
24,NC(=O)Nc1ccc([As](=O)(O)O)cc1,inactive: -6.5%
25,O=C(O)COc1ccc([As](=O)(O)O)cc1[N+](=O)[O-],inactive: 12.5%
26,Nc1ccccc1[As](=O)(O)c1ccccc1,inactive: 5.6%
27,CS(=O)(=O)c1cc([N+](=O)[O-])c2no[n+]([O-])c2c1,inactive: 2.4%
28,O=P(Nc1nccs1)(c1ccccc1)c1nc2ccccc2s1 (stereo not given),inactive: -20.4%

row,Structure (SMILES),activity change (cytotoxicity)
1,O=P(Nc1nccs1)(Oc1ccccc1)Oc1ccccc1,inactive: 1.2%
2,CCOP1(=S)c2c(C)nn(CCC#N)c2N=C(c2ccccc2F)N1C (stereo not given),inactive: -0.6%
3,NS(=O)(=O)c1cccc(NC(=O)COC(=O)C(O)(c2ccccc2)c2ccccc2)c1,inactive: 8.5%
4,O=P1(Nc2ccc(Br)cn2)COc2ccccc2OC1,inactive: 7.5%
5,Cc1ccc(OCC(=O)OC2CN3CCC2CC3)cc1 (stereo not given),inactive: -4.9%
6,O=[As](O)(c1cccs1)c1cccs1,inactive: 2.5%
7,Nc1cccc([As](=O)(O)c2ccccc2)c1,inactive: 6.2%
8,O=P1(Nc2ncccn2)COc2ccccc2OC1,inactive: -3.9%
9,Cc1ccc(S(=O)(=O)N(CCCN)CCCc2c(C)nc(N)[nH]c2=O)cc1,inactive: -5.9%
10,CCCC1OP(=O)(Nc2ccccc2)OCC1CC (stereo not given),inactive: -9.6%
11,O=C(/C=C/c1ccccc1)OC1CN2CCC1CC2 (stereo not given),inactive: -0.3%
12,CN(C)C1(CNC(=O)c2ccc(S(C)(=O)=O)cc2)CCCCC1,inactive: 0.7%
13,Cc1ccc(C(=O)OC2CN3CCC2CC3)cc1 (stereo not given),inactive: 4%
14,CC1CCC(C(C)C)C(OP(=O)(Nc2ccccn2)c2ccccc2)C1 (stereo not given),inactive: 7.8%
15,Cc1nn(-c2ccccc2)c2c1P(=O)(N1CCOCC1)N(C)C(c1ccccc1)=N2 (stereo not given),inactive: -2.3%
16,CC1(CBr)Cn2c(nc3ccccc3c2=O)S1 (stereo not given),inactive: -1.5%
17,CN(C(=O)Cc1ccc(Cl)c(Cl)c1)[C@@H]1CCCC[C@H]1N1CCCC1,inactive: -0.5%
18,CC(C)/C=N\N=C(\N)N[N+](=O)[O-],inactive: -1.2%
19,COc1ccccc1CNC(=O)COC(=O)C(O)(c1ccccc1)c1ccccc1,inactive: -6.1%
20,CC(C)(C)C(=O)NC(Sc1ncccn1)C(Cl)(Cl)Cl (stereo not given),inactive: 19.3%
21,Clc1n[nH]nc1-c1nn[nH][15n]1,inactive: 7%
22,O=P1(N(CCCl)CCCl)NCCC(C(F)(F)F)O1 (stereo not given),inactive: -9%
23,CN(CCCl)Cc1cc(Cl)c(NC2=NCCN2)c(Cl)c1,inactive: -2.4%
24,CCOP(=O)(Nc1ccc(C)cn1)OCC,inactive: 5.7%
25,CCOP(=O)(NC(=NC(C)c1ccccc1)NC(C)c1ccccc1)OCC (stereo not given),inactive: 3.9%
26,CCC1=CC2Cc3nc4ccc(Cl)cc4c(N)c3C(C1)C2 (stereo not given),inactive: -8.8%
27,O=P1(Nc2ccccn2)COc2ccccc2OC1,inactive: -1.3%
